## AlphaSeq binding of Ab-14 light chain variants to a spike HR2 peptide

The measurements come from Li et al. 2023 (doi:10.1038/s41467-023-39022-2) through the FLAb antibody collection.

The target is the same throughout: PDVDLGDISGINAS, from the HR2 region of SARS-CoV-2 spike.

Each scFv is VH, three GGGGS repeats, VL, as in the parent Ab-14, and differs from it in the CDRs of the light chain only.
VH: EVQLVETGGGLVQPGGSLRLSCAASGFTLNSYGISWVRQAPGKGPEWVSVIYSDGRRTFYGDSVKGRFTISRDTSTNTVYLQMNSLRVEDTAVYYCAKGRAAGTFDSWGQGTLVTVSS
VL: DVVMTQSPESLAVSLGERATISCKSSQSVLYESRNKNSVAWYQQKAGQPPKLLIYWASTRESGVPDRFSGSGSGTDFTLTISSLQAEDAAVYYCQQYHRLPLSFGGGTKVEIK

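These sequences belong to a second round, designed from the earlier measurements on random variants of the parent. Group labels follow the data file (En: ensemble of fine-tuned language models; GP: Gaussian process model; HC: hill climbing; Gen: genetic algorithm; Gibbs: Gibbs sampling; a sequence that several methods proposed may carry one label only). The assay is AlphaSeq: two haploid yeast populations carry antibody and antigen on their surface. Mating (16 h, 30 °C) was followed by selection of diploids and sequencing of their barcodes. Read counts were normalised to the haploid input and turned into Kd by a linear fit to BCL2-family pairs of known affinity, for each replicate. There are six technical replicates.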

The parent's light chain CDRs are KSSQSVLYESRNKNSVA, WASTRES, QQYHRLPLS; each variant's own CDRs replace them letter for letter. This list holds designs with more than six substitutions. Each Kd is an estimate from the mating assay, the geometric mean of the replicates in which the pair was seen; lower is stronger. An entry "nd" has no value in the source: the pair was not observed among the diploids in any replicate. This suggests poor binding but is not conclusive. Three control strains display no target. For all light chain designs, 4% of the pairings with them gave a signal, with a median of 430 nM and one signal in twenty below 38 nM, so weak values seen in few replicates may be background. Values of this round are not directly comparable with the first-round values of the same sequences. The authors averaged sequences with at least three values out of six and counted those with two or fewer as poor binders.

For KIRVQQYMQSEMESNIA | GESVRHS | QQYFHLPLT [En_Gibbs], the assay gave 6.5 nM (6 of 6 replicates). The variant KLSPSEQYESRQKNSVA | NASLRES | QQYHRLPLS [GP_Gibbs] showed 820 pM (6 of 6 replicates). For HVSNLYTDESVREYNIA | ETSHVEE | QQYERLPLI [En_Gibbs], the assay gave 7.3 nM (6 of 6 replicates). For ILSYSELYEDRMKNSVA | NASTREQ | QQYHRLPLS [GP_Gibbs], the assay gave 1.5 nM (6 of 6 replicates). The variant ILSQSVLMGSHLKNSVA | QASTRFN | QQYHRLPLM [En_HC] gave 16 nM (6 of 6 replicates). For IVTEAQNENSLYTNNIA | EGENTLA | QQYFRLPLM [En_Gibbs], the assay gave 10 nM (6 of 6 replicates).

With QVQAFNEHSKDQTQAMA | EATMRDA | QQYERLPLS [En_Gibbs] the result was 21 nM (6 of 6 replicates). With KFSASLYRDGSEASSVA | EAEEVRQ | QHYNRLPLG [En_Gibbs] the result was nd (0 of 6 replicates). The variant TLTQSVLMESHNKNSVA | DLSTRGS | QQYDRLPLS [En_HC] showed 3.4 nM (6 of 6 replicates). The variant MISQLFMYGSRNYNSIA | QASTREK | QQYDHLPLI [En_HC] gave 18 nM (6 of 6 replicates). With TIGPYLMTESRNKNNVA | GMQTRER | QQYHRLPLS [En_HC] the result was 9.1 nM (6 of 6 replicates). The variant KIGMTLNTLMHTKNNVA | DLVMREH | QQYHRLPLS [En_Gen] showed 5.5 nM (6 of 6 replicates).

For HISYSMQHLSKNKNSVA | NQQTRES | QQYHMLPLS [En_HC], the assay gave 17 nM (6 of 6 replicates). The variant MLDEYQMYEAANDAAIA | DANDVMP | QQYYSLPLS [En_Gibbs] showed 35 nM (6 of 6 replicates). With KLQQMWLYGSRNKNSVA | NASQREE | QQYHRLPLS [GP_Gibbs] the result was 1.1 nM (6 of 6 replicates). With KLSQSVNMTGKNKNSVA | ELSFREK | QQYERLPLS [En_HC] the result was 45 nM (6 of 6 replicates). With IISTVDAYESRNKNSIA | DQSTRGS | QQYDRLPLS [En_HC] the result was 4.5 nM (6 of 6 replicates). The variant KLQQQAEYESRVKNSVA | QASTRES | QQYHRLPLS [GP_Gibbs] gave nd (0 of 6 replicates).

The variant KISGYLNKESKAKNNVA | EMVNRES | QQYDRLPLS [En_HC] gave 2.0 nM (6 of 6 replicates). The variant MLTMFANENAGKSKNIA | DTNQLNT | QQYQRLPFM [En_Gibbs] showed 2.5 nM (6 of 6 replicates). With NMKVGLNFEDINHQAIA | SVDEREK | QQYHRLPLQ [En_Gibbs] the result was 7.5 nM (6 of 6 replicates). The variant ILSQMLLTAGNKHNSVA | QANYREQ | QQYHRLPLS [En_HC] gave 220 nM (1 of 6 replicates). For NMSDSTEKMASIERNIA | DETTRAM | QQYYRLPLS [En_Gibbs], the assay gave 3.5 nM (6 of 6 replicates). The variant HMSQVTMYGYWAKNSVA | QTSTREE | QQYDRLPLS [En_HC] showed 6.7 nM (6 of 6 replicates).

With KLMMSGLYESRNKNSVA | EASTREQ | QDYHRLPLS [GP_Gibbs] the result was 3.8 nM (6 of 6 replicates). For HLAQSVDLESVHKNSIA | DLMTRES | QQYHRLPLS [En_HC], the assay gave 15 nM (6 of 6 replicates). With KVSPSWLGEDRNCNAVA | QASCRES | QQYHRLPLS [GP_Gibbs] the result was 5.5 nM (6 of 6 replicates). The variant ILSQFMLTAGNKHSSVA | QANNRED | QQYHRLPLS [En_HC] showed 37 nM (6 of 6 replicates). With KLSQITGHMSMSKNNVA | EMETREN | QQYDRLPLS [En_Gen] the result was 27 nM (6 of 6 replicates). For KLEDQMQTSIAMDNSIA | QTNMFHE | QQYGRLPLV [En_Gibbs], the assay gave 40 nM (5 of 6 replicates).

With KLSMSTRYESENKNSIA | ELVTRMS | QQYHRLPLS [En_HC] the result was 6.1 nM (6 of 6 replicates). For RLTQQMYGFNIHANAIA | SGAERQW | QQYARLPIS [En_Gibbs], the assay gave 56 nM (4 of 6 replicates).

The last 5 entries again:

CDR-L1	CDR-L2	CDR-L3	group	apparent Kd	replicates with signal
ILSQFMLTAGNKHSSVA	QANNRED	QQYHRLPLS	En_HC	37 nM	6/6
KLSQITGHMSMSKNNVA	EMETREN	QQYDRLPLS	En_Gen	27 nM	6/6
KLEDQMQTSIAMDNSIA	QTNMFHE	QQYGRLPLV	En_Gibbs	40 nM	5/6
KLSMSTRYESENKNSIA	ELVTRMS	QQYHRLPLS	En_HC	6.1 nM	6/6
RLTQQMYGFNIHANAIA	SGAERQW	QQYARLPIS	En_Gibbs	56 nM	4/6